The values below come from EP4837903A1, “TETRAZOLE COMPOUND, PHARMACEUTICAL COMPOSITION THEREOF AND USE THEREOF” (dated 2026).

In series [1] the test system is bleomycin-induced pulmonary fibrosis mice. Put plainly: MASSON staining of lung tissue, modified Ashcroft scale scoring, in bleomycin-induced pulmonary fibrosis mouse model. Conditions: bleomycin 1 mg/kg intratracheal; 30 mg/kg by gavage, treatment from day 7 for 14 days; MASSON staining of lung sections. The source says:
(§1) Pulmonary fibrosis model establishment: Male C57BL6J mice (Vital River, C57BL/6JNifdc), aged 6-8 weeks, were adaptively fed for one week and divided into a model group (6 mice), a Compound 1 treatment group (6 mice), a Compound 2 treatment group (6 mice), a Compound 3 treatment group (6 mice), a Compound 4 treatment group (6 mice), a Vofopitant treatment group (6 mice), a Nintedanib (Nintedanib is a commonly used drug in the prior art for treating IPF) treatment group (6 mice), and a control group (6 mice).
(§2) Preparation of bleomycin solution: Bleomycin dry powder was prepared to the desired concentration using sterile PBS.
(§3) Non-surgical method for intratracheal instillation of bleomycin into mouse lungs: Mice were anesthetized with isoflurane and suspended on an operating board at a 70° angle. Bleomycin was instilled intratracheally using a 200 µL pipette.
(§4) On the first day, the model group and each treatment group received intratracheal instillation of bleomycin solution (1 mg/kg/50 µL). The control group received an equal volume of normal saline. Treatment began 7 days after model establishment and continued for 14 days, totaling 21 days.
(§5) Compounds 1 to 4 were each dissolved in water to prepare 30 mg/mL stock solutions. For working solutions, the stock solutions were diluted 5-fold with autoclaved water to the required volume. Each mouse received Compound 1 to Compound 4 at a dose of 30 mg/kg, administered by gavage.
(§6) Vofopitant was dissolved in water to prepare a 30 mg/mL stock solution. For the working solution, the stock solution was diluted 5-fold with autoclaved water to the required volume. Each mouse received Vofopitant at a dose of 30 mg/kg, administered by gavage.
(§7) Preparation, dosage, and administration of Nintedanib drug solution: Nintedanib was dissolved in DMSO to prepare a stock solution (40 mg/mL). For the working solution, the stock solution was diluted 7-fold with 20% SBE-β-CD physiological saline solution to the required volume and mixed well. Each mouse received Nintedanib at a dose of 30 mg/kg, administered by gavage.
MASSON staining: Mouse lung tissue samples were fixed in 4% paraformaldehyde for 24 hours, dehydrated through a graded alcohol series, embedded in paraffin, cut into 5 µm sections, and subjected to MASSON staining. After clearing with xylene, the sections were mounted with neutral balsam. Pathological changes in the lungs were observed and photographed under an optical microscope.
The scoring criteria for the modified Ashcroft scale are as follows:
As shown by the scoring results in Table 2, compared with the control group, the degree of pulmonary fibrosis injury in the model group mice was exacerbated. The Compound 1 to Compound 4 treatment groups, the Vofopitant treatment group, and the Nintedanib treatment group all ameliorated the degree of pulmonary fibrosis injury in mice.

The test system is the same in series [2]. In words: Survival rate in bleomycin-induced pulmonary fibrosis mouse model. Conditions: bleomycin 1 mg/kg intratracheal; 30 mg/kg by gavage, treatment from day 7 for 14 days, 21 days in total; 6 mice per group. On the procedure:
The oral medicaments in this example comprise an active pharmaceutical ingredient and a solvent.
The active pharmaceutical ingredient is Compound 1 to Compound 4, at a dosage of 30 mg/kg. The solvent is water.
as §1, §2, §3, §4, §5, §6, §7
Furthermore, the effects of Compounds 1 to 4 were 1.2 times that of the Vofopitant group and 1.6 times that of the Nintedanib group.

Series [3] is described as follows: Rat pharmacokinetic study (oral gavage). Conditions: male SD rats, oral gavage 10 mg/kg, vehicle water; for AUC0-24h / Cmax / T1/2 / Tmax: plasma; for F: bioavailability. As to the method: For the rat pharmacokinetic study, male SD rats (Shanghai Jihui) weighing 200-250 g each were fasted overnight. Six rats were administered Compounds 1-4 of the present invention and Vofopitant separately by oral gavage at a dose of 10 mg/kg, with water as the vehicle. Blood samples were collected before administration and at 15 min, 30 min, 1 h, 2 h, 4 h, 6 h, 8 h, 10 h, and 24 h after administration. Blood samples of 0.2 mL were collected into labeled tubes containing EDTA-2K anticoagulant. The tubes were gently inverted to mix the anticoagulant (EDTA-2K) thoroughly with the blood, immediately placed in wet ice, and centrifuged to separate plasma within 1 hour after blood collection. Centrifugation conditions were 4°C, 6800 × g, for 6 minutes. The separated plasma was transferred to labeled Eppendorf tubes and stored in an ultra-low temperature freezer as soon as possible until sample analysis. Major pharmacokinetic parameters were analyzed using WinNonlin 7.0 software with a non-compartmental model. Table 3: Rat pharmacokinetic study results.
Herein, Cmax represents peak concentration, Tmax represents time to peak concentration, AUC represents area under the plasma concentration-time curve, T1/2 represents elimination half-life, and F represents bioavailability.

On to `COC(=O)c1ccc2c(c1)NC(=O)/C2=C(\Nc1ccc(N(C)C(=O)CN2CCN(C)CC2)cc1)c1ccccc1`, for which the “Modified Ashcroft Score” value in series [1] is given as 4.465 ±0.270. For the same molecule, in series [2], the “Survival Rate” value is 50.00%.
As usually defined, the Cmax is the peak of the concentration-time curve. What is called Tmax is the time from dosing to the highest level. With `[2H]C([2H])([2H])Oc1ccc(-n2nnnc2C(F)(F)F)cc1CN[C@H]1CCCN[C@H]1c1ccccc1`, in series [3], the AUC0-24h is 3867 ng·h/mL, the Cmax is 1210 ng/mL, the T1/2 was 102 min and the time to peak (Tmax) is 15 min. In series [3], this molecule showed an F of 78.7%. Moreover, the “Modified Ashcroft Score” value in series [1] is listed as 2.475± 0.269. Further, the “Survival Rate” value in series [2] was 83.33%.
Consider `[2H]C([2H])([2H])Oc1ccc(-n2nnnc2C(F)(F)F)cc1CN[C@@H]1CCCN[C@@H]1c1ccccc1`, for which, in series [3], the AUC0-24h came out at 3708 ng·h/mL, the Cmax was 1164 ng/mL, the T1/2 worked out at 96 min and the Tmax stood at 15 min. The molecule further yielded a F in series [3] of 74.3%. Also, the “Modified Ashcroft Score” value in series [1] stood at 2.797 ±0.259. In addition, in series [2], the “Survival Rate” value was found to be 83.33%.
With `COc1ccc(-n2nnnc2C(F)(F)F)cc1CN[C@H]1CCCN[C@H]1c1ccccc1`, in series [3], the AUC0-24h worked out at 3367 ng·h/mL, the Cmax came to 929 ng/mL, the T1/2 worked out at 100 min and the Tmax is 30 min. This molecule showed a F in series [3] of 56.5%. Moreover, the “Modified Ashcroft Score” value in series [1] was 3.482 ±0.179. Moreover, the “Survival Rate” value in series [2] is listed as 66.67%.
For `[2H]C([2H])([2H])Oc1ccc(-n2nnnc2C(F)(F)F)cc1CN[C@H]1CCCN[C@@H]1c1ccccc1`, in series [3], the AUC0-24h turned out to be 3873 ng·h/mL, the Cmax was 1310 ng/mL, the T1/2 was found to be 104 min and the Tmax worked out at 15 min. The same molecule yielded a F in series [3] of 78.8%. Moreover, the “Modified Ashcroft Score” value in series [1] is 2.635 ±0.207.
As for `[2H]C([2H])([2H])Oc1ccc(-n2nnnc2C(F)(F)F)cc1CN[C@@H]1CCCN[C@H]1c1ccccc1`, in series [3], the AUC0-24h worked out at 3216 ng·h/mL, the Cmax was 972 ng/mL, the T1/2 turned out to be 82.8 min and the Tmax was found to be 15 min. The same molecule showed a F in series [3] of 65.5%. For the same molecule, the “Modified Ashcroft Score” value in series [1] turned out to be 2.902 ±0.248. For the same molecule, in series [2], the “Survival Rate” value is on record as 83.33%.
